Some of the results follow.
Tested on: A. baumannii ATCC 17978
Assay: relative growth (fraction of control); higher = less inhibition
Details: 50 µM

Row | Structure (SMILES) | relative growth
1 | COc1ccc(S(=O)(=O)N2CCO[C@@H]2CNC(=O)C(=O)NCc2ccncc2)cc1 | 1.01
2 | COc1ccccc1C#Cc1cnc2c(c1)C(=O)N([C@@H](C)CO)C[C@H](C)[C@H](CN(C)C(=O)c1ccc3c(c1)OCO3)O2 | 0.851
3 | O=C(C[C@@H]1CC[C@H]2[C@@H](COC[C@H](O)CN2C(=O)c2ccncc2)O1)NC1CCC1 | 0.981
4 | CCOC(=O)Nc1ccc(C)s1 | 0.965
5 | Nc1ccn(C2CSC(CO)O2)c(=O)n1 (stereo not given) | 1.13
6 | Cc1c(Cl)cccc1Nc1ccccc1C(=O)O | 0.942
7 | COC(=O)Cc1csc(CC(N)=O)n1 | 1.04
8 | C[C@@H]1CN([C@@H](C)CO)S(=O)(=O)c2ccc(C#CC3CC3)cc2O[C@@H]1CN(C)Cc1ccc(F)cc1 | 1.13
9 | C=CCC[C@H](Cc1ccc(F)cc1)C(=O)O[C@@H](CNC(=O)[C@@H](CC=C)CC(=O)N[C@H](CO)Cc1ccccc1)c1ccccc1 | 0.864
10 | CC(C)C[C@](O)(C(=O)OCc1ccc(O[C@@H]2O[C@H](CO)[C@@H](O)[C@H](O)[C@H]2O)cc1)[C@@H](O)C(=O)OCc1ccc(O[C@@H]2O[C@H](CO)[C@@H](O)[C@H](O)[C@H]2O)cc1 | 0.997
11 | CC(CN)(Cc1ccccc1Cl)C(=O)O (stereo not given) | 1.01
12 | CN1CCC(=C2c3ccccc3CCc3sccc32)CC1.O=C(O)CC(O)C(=O)O | 0.975
13 | NC(=O)C1CCCN1C(=O)C(Cc1c[nH]cn1)NC(=O)C1CCC(=O)N1 (stereo not given) | 1.14
14 | CCCCc1nc2ccccc2c(N)c1CC.O=C1O[C@H]([C@H](O)CO)[C@@H](O)C1=O | 0.853
15 | CCNC(=O)C[C@@H]1CC[C@H](NC(=O)C2CC2)[C@H](CO)O1 | 0.909
16 | N#C/C(=C\c1ccc(C(F)(F)F)cc1)c1c[nH]c2ccccc12 | 1.04
17 | COS(=O)(=O)[O-].COc1cc(N)cn[n+]1-c1ccccc1 | 1.04
18 | COc1ccccc1S(=O)(=O)N(C)C[C@H]1Oc2cc(C#CCC(C)C)ccc2S(=O)(=O)N([C@@H](C)CO)C[C@@H]1C | 1.35
19 | CC[C@H]1OC(=O)[C@H](C)[C@@H](O[C@H]2C[C@@](C)(OC)[C@@H](O)[C@H](C)O2)[C@H](C)[C@@H](O[C@@H]2O[C@H](C)C[C@H](N(C)C)[C@H]2O)[C@](C)(O)C[C@@H](C)C(=O)[C@H](C)[C@@H](O)[C@]1(C)O | 0.112
20 | NCCSc1cc(C(F)(F)F)nc2ccccc12 | 1.03
21 | CC(C(=O)O)c1ccc(CC2CCCC2=O)cc1 (stereo not given) | 1.07
22 | COC(=O)CSc1nc(=O)c(C)n[nH]1 | 0.967
23 | CN(C)CC#Cc1cncc(C(=O)NN)c1 | 0.946
24 | C=CCNC(=O)[C@H]1[C@@H]2C(=O)O[C@@H](c3ccccc3)[C@@H](c3ccccc3)N2[C@@H](c2ccc(O)cc2)[C@]12C(=O)N(C(=O)OCCOC)c1ccc(C#CC3(O)CCCCCC3)cc12 | 0.997
25 | O=C(Cc1ccccn1)NCC[C@H]1CC[C@H](NC(=O)CN2CCOCC2)[C@@H](CO)O1 | 0.942
26 | CO[C@H](CN(C)S(=O)(=O)c1ccc(Cl)cc1)[C@@H](C)CN([C@@H](C)CO)S(=O)(=O)c1cccc(Cl)c1 | 0.94
27 | CNS(=O)(=O)c1cc(OC)ccc1OC | 1.05
28 | CC1=C(/C=C/C(C)=C/C=C/C(C)=C/C=C/C=C(C)/C=C/C=C(C)/C=C/C2=C(C)CCCC2(C)C)C(C)(C)CCC1 [beta-CAROTENE [2mM]] | 0.976

Row | Structure (SMILES) | relative growth
29 | CC(C)NC(=O)Nc1ccc2c(c1)C(=O)N([C@H](C)CO)C[C@@H](C)[C@H](CN(C)S(=O)(=O)c1ccc(Cl)cc1)O2 | 0.998
30 | Cc1ccc(O)c(-c2cc(-c3ccc(C(C)(C)C)cc3)[nH]n2)c1 | 0.936
31 | Cc1ccc(S(=O)(=O)N2C[C@@H](O)COC[C@@H]3O[C@H](CC(=O)NCCCN(C)C)CC[C@H]32)cc1 | 1.11
32 | O=C(C[C@@H]1C=C[C@H](NC(=O)CN2CCOCC2)[C@H](CO)O1)NCCc1ccccc1 | 1.16
33 | CC(C)(C)OC(=O)NCc1nnc(N)[nH]1 | 0.958
34 | CCOC(=O)N(C)C[C@@H]1OCc2cn(nn2)CCCC(=O)N([C@@H](C)CO)C[C@H]1C | 0.886
35 | CNC(=O)CN(CCN(CCN(CC(=O)[O-])CC(=O)NC)CC(=O)[O-])CC(=O)[O-].[Gd] | 0.971
36 | C[C@H](NC(=O)C[C@@H]1CC[C@@H](NC(=O)CN2CCOCC2)[C@@H](CO)O1)c1ccccc1 | 0.988
37 | O=C(C[C@@H]1C=C[C@H](NC(=O)C2CC2)[C@@H](CO)O1)NCCCN1CCOCC1 | 0.888
38 | CC1=CC(=O)[C@H]2C(C)(C)CCC[C@]2(C)[C@@]1(O)CCc1ccoc1 | 1.01
39 | COc1cccc2c1C(=O)c1c(O)c3c(c(O)c1C2=O)C[C@@](O)(C(=O)CO)C[C@@H]3O[C@H]1C[C@H](N)[C@@H](O)[C@H](C)O1.Cl | 0.714
40 | CC(C)(Oc1ccc(CCNC(=O)c2ccc(Cl)cc2)cc1)C(=O)O | 0.942
41 | C#C[C@]1(O)CCC2C3CCC4=CC(=O)CC[C@@H]4C3CC[C@@]21CC (stereo not given in full) | 0.993
42 | O=C(Cc1ccncc1)Nc1ccc2c(c1)[C@@H]1C[C@@H](CC(=O)N3CCc4ccccc4C3)O[C@@H](CO)[C@@H]1O2 | 0.969
43 | O=C(O)CCc1nc(-c2ccccc2)c(-c2ccccc2)o1 | 1.03
44 | CNc1nc(OCC#N)nc(N2CCCCC2)n1 | 0.927
45 | O=C(C[C@@H]1CC[C@@H](NS(=O)(=O)c2ccccc2F)[C@@H](CO)O1)NCCCN1CCOCC1 | 0.926
46 | CC1(C)C=Cc2c(c3c(c4c(=O)c(-c5ccc(O)cc5)coc24)OC(C)(C)CC3)O1 | 0.944
47 | Cc1sccc1-c1csc(N)n1 | 0.935
48 | CCN(CC)CCNC(=O)c1cc(Cl)c(N)cc1OC.Cl | 0.97
49 | CC(C)NC(=O)N(C)C[C@@H]1Oc2cc(-c3ccccc3F)ccc2S(=O)(=O)N([C@H](C)CO)C[C@@H]1C | 0.945
50 | O=C1c2ccccc2C(=O)C1c1ccccc1 | 1.11
51 | NC[C@H](c1ccco1)N1CCN(c2ccc(F)cc2)CC1 | 1.04
52 | Clc1ccc2c(c1)C(N1CCNCC1)=Nc1ccccc1O2 | 0.795
53 | O=C(O)C1CC([C@H]2CCCCN2)CN2CCCCC12 (stereo not given in full) | 1.09
54 | Oc1c(Br)cc(Br)c2cccnc12 | 0.291
55 | COc1ccc(-c2coc3cc(O)ccc3c2=O)cc1 | 1.12
